Data reported in paper PMC11739112, “High-affinity promotor binding of YhaJ mediates a low signal leakage for effective DNT detection” (Frontiers in Microbiology, 2024).

Target: the molecule itself
Test: SEC

B1: YhaJ DNA binding domain linked to a linker region (YhaJ-DBD, residues 1-93) (domain or fragment)
chain: MAKERALTLEALRVMDAIDRRGSFAAAADELGRVPSALSYTMQKLEEELDVVLFDRSGHRTKFTNVGRMLLERGRVLLEAADKLTTDAEALAR
stoichiometry N: 2
